Where “and” joins values, the source holds several entries; their conditions need not be identical. Identical values can stand only once. This is a selection; strong and weak results do not stand in their true shares. Calls of active or inactive are those of the source. No stated cut-off is given here; in the data, active means enhancement above about 30%; inactive means the rest.

Sequences of proteins named here, by UniProt entry; tags and fusion partners are left off. A change or cut given only in a name is not applied to a line headed by its entry.
UniProt P34981: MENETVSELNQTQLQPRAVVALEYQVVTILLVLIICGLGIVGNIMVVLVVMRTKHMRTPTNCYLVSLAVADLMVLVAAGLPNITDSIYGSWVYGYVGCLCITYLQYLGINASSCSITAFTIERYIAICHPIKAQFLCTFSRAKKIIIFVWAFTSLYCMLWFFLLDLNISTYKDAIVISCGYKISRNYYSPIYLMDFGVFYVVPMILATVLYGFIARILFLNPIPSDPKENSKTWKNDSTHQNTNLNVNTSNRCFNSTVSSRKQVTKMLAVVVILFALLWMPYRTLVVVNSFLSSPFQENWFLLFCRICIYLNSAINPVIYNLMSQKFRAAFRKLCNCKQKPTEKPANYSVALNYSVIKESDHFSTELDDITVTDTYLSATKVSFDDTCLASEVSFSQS

Data on 79 compounds can be found in PubChem BioAssay AID493056 (National Center for Advancing Translational Sciences (NCATS), 2011).

This assay has as its target Thyrotropin-releasing hormone receptor (Homo sapiens) (UniProt P34981). The assay can be described thus: qHTS for Small Molecule Agonists and Allosteric Enhancers of Human TRH Receptor: Primary Screen for Enhancers. Further: 0% is about no effect. Particulars: TRHR cells, fluo-8 calcium fluorescence, EC20 TRH enhancement; at 2 µM; stronger effect = higher value. The method in brief:
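Enhancer read-out: after compound pinning and an initial kinetic agonist-mode read, an EC20 of TRH (10 nM final) was injected and fluo-8 calcium signal (Ex 480/Em 530) followed at 1 s/cycle for 100 cycles in TRHR-expressing cells.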
Regarding `O=C(COc1ccccc1)OC1CN2CCC1CC2` (centres undefined), the enhancement is inactive: -2.75%.

Turning to `CCOC(=O)Nc1cccc([As](=O)(O)O)c1`, the enhancement was inactive: 6.4%.

Turning to `O=[N+]([O-])c1ccc(Nc2ccc(Oc3ccc([N+](=O)[O-])cc3[N+](=O)[O-])cc2)c([N+](=O)[O-])c1`, the enhancement was inactive: 4.63%.

Consider `Cc1cc(SC(NC=O)C(Cl)(Cl)Cl)ncn1` (centres undefined), for which the enhancement is inactive: -2.49%.

`O=P(Nc1ccccn1)(c1cccc2ccccc12)c1cccc2ccccc12`: the enhancement was inactive: -10.1%.

For `CCOC(=O)Nc1ccc([As](=O)(O)O)c(O)c1`, the enhancement is inactive: -5.16%.

Turning to `Cc1cc(SC(NC(=O)c2ccccc2)C(Cl)(Cl)Cl)nc(C(C)C)n1` (centres undefined), the enhancement was inactive: 6.68%.

Consider `CCCCOc1ccc(C(=O)NCC2(N3CCCCC3)CCCCC2)cc1OC`, for which the enhancement is inactive: -17.8%.

Consider `CC(C)(C)C(=O)NC(Sc1ccncn1)C(Cl)(Cl)Cl` (centres undefined), for which the enhancement is inactive: 8.4%.

As for `O=[N+]([O-])c1ncn(CCn2ncnc2[N+](=O)[O-])n1`, the enhancement is inactive: -0.0074%.

With `O=[N+]([O-])c1cccc(NC2=NCC(CBr)S2)c1` (centres undefined), the enhancement is inactive: 0.885%.

As to `O=C(O)CNc1ccc([As](=O)(O)O)cc1`, the enhancement was inactive: 20.5%.

Consider `O=C(Nc1cc([As](=O)(O)O)ccc1O)c1ccccc1`, for which the enhancement was inactive: 9.6%.

`C[N+]1=C2C=CC=CC=C2SC12C([N+](=O)[O-])=CC([N+](=O)[O-])=C[C-]2[N+](=O)[O-]` (centres undefined): the enhancement was inactive: 4.37%.

Regarding `Nc1ccc([As](=O)(O)c2ccc(N)cc2)cc1`, the enhancement is inactive: 8.55%.

As to `CCN(/C(=N/P(=O)(N1CCOCC1)N1CCOCC1)N1CCOCC1)c1ccc(OC)cc1`, the enhancement was inactive: 1.99%.

As to `CN(C)C(=O)OCCc1n(C)cc[n+]1C`, the enhancement was active: 31.2%.

With `CC(C)=N/N=C(\N)N[N+](=O)[O-]`, the enhancement is inactive: 7.2%.

For `CC1CCN(C(=O)Oc2c(Cl)cc(Cl)c3cccnc23)CC1`, the enhancement is inactive: -4.67%.

In the case of `COc1ccc(C2=NCC(CBr)S2)cc1` (centres undefined), the enhancement was inactive: -2.29%.

Consider `CC(=O)N1C2C3N(C(C)=O)C1C1N(C(C)=O)C(C(N1C(C)=O)N3C(C)=O)N2C(C)=O`, for which the enhancement is inactive: 14.2%.

On to `O=[N+]([O-])c1cccc2n[nH]nc12`, for which the enhancement is inactive: 0.371%.

Turning to `O=[N+]([O-])c1cc([N+](=O)[O-])c(CCNc2ccccc2)c([N+](=O)[O-])c1`, the enhancement is inactive: -6%.

For the compound `CCc1nc2c(n1)c1c(non1O)c1c2no[n+]1[O-]`, the enhancement is inactive: -0.588%.

With `Cc1ccc(NP(=O)(Oc2ccccc2)Oc2ccccc2)nc1`, the enhancement was inactive: 7.97%.

In the case of `Nc1cc(N)c2nonc2c1[N+](=O)[O-]`, the enhancement was inactive: -0.339%.

In the case of `Cc1c2non([O-])c-2c(C)[n+](=O)[n+]1[O-]`, the enhancement is inactive: 6.2%.

In the case of `O=C(NC(Sc1ccncn1)C(Cl)(Cl)Cl)c1ccccc1` (centres undefined), the enhancement was inactive: 0.0187%.

Take `Oc1ccccc1CNc1ccccn1`: the enhancement was inactive: -3.29%.

Turning to `NC(=O)c1cc([N+](=O)[O-])cc([N+](=O)[O-])c1N`, the enhancement was inactive: 1.09%.

Consider `Cc1ccc(N/C(=N/P(=O)(N2CCOCC2)N2CCOCC2)N2CCOCC2)cc1`, for which the enhancement was inactive: 1.63%.

`CN(C(=O)Cc1ccc(Cl)c(Cl)c1)[C@H]1CCCC[C@H]1N1CCCC1`: the enhancement was inactive: -6.43%.

Regarding `Cc1ccc(OP(=O)(Nc2nccs2)Oc2ccc(C)cc2)cc1`, the enhancement was inactive: -1.72%.

As to `COc1ccccc1OP(=O)(Nc1ccc(C)cn1)Oc1ccccc1OC`, the enhancement is inactive: 0.189%.

Consider `Clc1ccc(Cl)c(NC2=NCC(CBr)S2)c1` (centres undefined), for which the enhancement was inactive: 1.76%.

On to `CN1CCCC(OC(=O)C(c2ccccc2)c2ccccc2)C1` (centres undefined), for which the enhancement is inactive: 1.39%.

As for `O=[N+]([O-])c1cc([N+](=O)[O-])c(CCN2CCOCC2)c([N+](=O)[O-])c1`, the enhancement is inactive: 11.3%.

`CCN(N=Nc1nonc1N)c1nonc1N`: the enhancement was inactive: -2.72%.

Turning to `Nc1cccc2ccc([As](=O)(O)O)cc12`, the enhancement was inactive: -3.02%.

With `O=C(O)c1ccccc1[As](=O)(O)O`, the enhancement was inactive: 10.1%.

On to `CC(=O)Nc1ccc([As](=O)(O)O)cc1`, for which the enhancement was inactive: 5.28%.

Regarding `O=P(Nc1nc2ccc(Cl)cc2s1)(c1ccccc1)c1ccccc1`, the enhancement is inactive: -5.63%.

Take `Cc1ccc(NP(=O)(Oc2ccccc2F)Oc2ccccc2F)nc1`: the enhancement is inactive: -0.726%.

On to `CCOP(=O)(Nc1ccccc1)OCC`, for which the enhancement was inactive: 25% and inactive: -1.83%.

Regarding `Cc1cc(SC(NC(=O)c2ccc(F)cc2)C(Cl)(Cl)Cl)ncn1` (centres undefined), the enhancement is inactive: 0.912%.

With `Cc1ccc(OP(=O)(Nc2ccccn2)Oc2ccc(C)cc2)cc1`, the enhancement is inactive: 3.4%.

As for `CC(=O)NC(SC(=S)N(CC(C)C)CC(C)C)C(Cl)(Cl)Cl` (centres undefined), the enhancement was inactive: -4.67%.

For `COC(=O)c1cc2c(s1)N=C(c1ccccc1)N(C)P2(=O)N1CCOCC1` (centres undefined), the enhancement is inactive: 0.526%.

Turning to `O=C(OC1CN2CCC1CC2)c1ccccc1` (centres undefined), the enhancement is inactive: 7.6%.

As to `CN(C)C(=O)Oc1noc2ccccc12`, the enhancement was inactive: -3.59%.

On to `O=c1c2cc([N+](=O)[O-])ccc2[nH]c2c([N+](=O)[O-])cc([N+](=O)[O-])cc12`, for which the enhancement is inactive: 5.74%.

For `Cc1ccccc1OP(=O)(Nc1ccccn1)Oc1ccccc1C`, the enhancement is inactive: -5.46%.

For `O=C(NC1CCS(=O)(=O)C1)NP(=S)(Oc1ccccc1)Oc1ccccc1` (centres undefined), the enhancement was inactive: 1.09%.

Turning to `CCNC(=S)/N=C(\N)N[N+](=O)[O-]`, the enhancement is inactive: -0.899%.

On to `CCOC(=O)NC(Sc1ccccc1)C(Cl)(Cl)Cl` (centres undefined), for which the enhancement is inactive: -4.72%.

Consider `Cc1ccc(NP(=O)(Oc2cccc(C)c2)Oc2cccc(C)c2)nc1`, for which the enhancement was inactive: -1.02%.

`c1ccc(-c2nn[nH]n2)c(-c2nn[nH]n2)c1`: the enhancement is inactive: 2.85%.

Consider `CC(=O)c1ccc(N2CC2c2ccncc2)cc1` (centres undefined), for which the enhancement was inactive: -2.96%.

With `C[C@@H]1C=CCP(=O)(Oc2ccccc2)O1` (some centres undefined), the enhancement is inactive: 1.41%.

As to `C[C@H]1OP(=O)(Oc2ccccc2)C[C@@H]2O[C@@H]21` (some centres undefined), the enhancement was inactive: 11.7%.

Regarding `Cc1ccccc1CN(C)C(=O)COC(=O)C(O)(c1ccccc1)c1ccccc1`, the enhancement is inactive: 1.15%.

Turning to `CC(=O)Nc1ccc(Oc2c([N+](=O)[O-])cc([N+](=O)[O-])cc2[N+](=O)[O-])cc1`, the enhancement is inactive: -1.3%.

Consider `CC(=O)Nc1ccc([As](=O)(O)O)c(O)c1`, for which the enhancement was inactive: -3.82%.

Take `O=P1(Nc2nc3ccc(Cl)cc3s2)COc2ccccc2O1` (centres undefined): the enhancement was inactive: 3.02%.

`CC(C)(C)C(=O)NC(Sc1ccccc1)C(Cl)(Cl)Cl` (centres undefined): the enhancement was inactive: 3.77%.

For `O=P(Nc1nccs1)(c1ccccc1)c1ccccc1`, the enhancement was inactive: -11.8%.

`CC(C)C(=O)NC(Sc1ccccc1)C(Cl)(Cl)Cl` (centres undefined): the enhancement is inactive: -1.2%.

As for `c1nnnn1CCn1cnnn1`, the enhancement is inactive: 16.2%.

Take `O=[N+]([O-])c1ncn(CCn2cnc([N+](=O)[O-])n2)n1`: the enhancement was inactive: 0.487%.

As for `CC(=O)NC(SC(=S)N(C)C)C(Cl)(Cl)Cl` (centres undefined), the enhancement is inactive: 5.8%.

For the compound `O=[N+]([O-])c1ccc(O)c(/C=N/Nc2ccc([N+](=O)[O-])cc2[N+](=O)[O-])c1`, the enhancement was inactive: -6.35%.

As for `O=[As](O)(c1ccccc1)c1ccc(O)cc1`, the enhancement was inactive: 2.42%.

For `Nc1ccc([As](=O)(O)c2ccc([N+](=O)[O-])cc2)cc1`, the enhancement was inactive: -0.347%.

As for `C(Cc1nn[nH]n1)Cc1nn[nH]n1`, the enhancement was inactive: -2.77%.

As to `O=C(OC1CN2CCC1CC2)c1cccc(Cl)c1` (centres undefined), the enhancement was inactive: -0.0857%.

Turning to `CN(C)C1(CNC(=O)c2ccc(Cl)c(S(N)(=O)=O)c2)CCCCC1`, the enhancement was inactive: 1.18%.

With `O=P(Nc1ccccn1)(c1ccc(Br)cc1)c1ccc(Br)cc1`, the enhancement is inactive: 0.298%.

Turning to `C[C@H]1OP(=O)(Oc2ccccc2)[C@H](O)[C@H](O)[C@H]1N=[N+]=[N-]` (some centres undefined), the enhancement is inactive: -4.87%.

In the case of `O=P(Nc1nc2ccccc2s1)(c1ccccc1)c1ccccc1`, the enhancement was inactive: -0.504%.
